Measurements taken from patent US10933032B2, “Methods for the treatment of cancer using coenzyme Q10 combination therapies” (Berg LLC, priority 2013, dated 2021).

How the values were obtained:
[1] = tested on: MDA-MB213 breast cancer cells; experiment: Caspase 3 activity; type: cell-based; settings: 100 μM CoQ10 for 72-96 hours, FIG. 18
[2] = tested on: SKBR-3 breast cancer cells; settings: 100 μM CoQ10 for 72-96 hours, FIG. 18
[3] = tested on: MDA-MB231 breast cancer cells
[4] = tested on: SK-Br3 breast cancer cells; experiment: In vitro cell viability / viable cell number; type: cell-based, Human
Protocol: Cell lines (e.g., MIAPaCa-2, Hep3B, and/or SK-Br3) cell lines were maintained in culture using standard culture conditions for each cell line. Cells were treated with CoQ10 or the indicated chemotherapeutic agents at the indicated concentrations for the indicated times. After the predetermined incubation time, the cells were stained to distinguish between viable and non-viable cells using routine methods. Cells were counted by microscopy or flow cytometry. The number of cells after treatment were normalized to the number of cells in the untreated sample.
Specifically, to assess the efficacy of CoQ10 in combination with gemcitabine in vitro, MIAPaCa-2 pancreatic carcinoma cells were maintained in culture and exposed to increasing concentrations of gemcitabine in combination with CoQ10, the 4% CoQ10 intravenous formulation, or the excipient of the CoQ10 intravenous formulation. […] The combination treatment with gemcitabine and the 4% CoQ10 intravenous formulation results in an increase in cell death as compared to gemcitabine treatment alone.
To assess the efficacy of CoQ10 in combination with doxorubicin in vitro, MIAPaCa-2 pancreatic carcinoma cells were maintained in culture and exposed to increasing concentrations of gemcitabine in combination with CoQ10, the 4% CoQ10 intravenous formulation, or the excipient of the CoQ10 intravenous formulation. […]

[5] = tested on: SKBR-3 breast cancer cells; experiment: Reactive oxygen species (ROS) production; type: cell-based; settings: 100 μM CoQ10 for 24 hours, FIG. 17
[6] = tested on: Human pancreatic cancer cells (PcCa2); experiment: Number of viable cells, CoQ10 pretreatment or cotreatment with gemcitabine (Example 18); type: cell-based; settings: pretreated with 100 μM CoQ10 followed by gemcitabine (0.1, 1 and 5 μM), *p<0.05, FIG. 26
Protocol: Human pancreatic cancer cells (PcCa2) were pretreated with 100 μM CoQ10 followed by treatment with gemcitabine (0.1, 1 and 5 μM), or cotreated with CoQ10 and gemcitabine.

COC1=C(OC)C(=O)C(C/C=C(\C)CC/C=C(\C)CC/C=C(\C)CC/C=C(\C)CC/C=C(\C)CC/C=C(\C)CC/C=C(\C)CC/C=C(\C)CC/C=C(\C)CCC=C(C)C)=C(C)C1=O [CoQ10, Coenzyme Q10]
Caspase 3 activity vs untreated [1]: increased caspase 3 activity | Caspase 3 activity vs untreated [2]: increased caspase 3 activity | Number of viable cells compared to chemotherapeutic agents [3]: significant decreases in viable breast cancer cells | Number of viable cells compared to chemotherapeutic agents [4]: significant decreases in viable breast cancer cells | ROS production [5]: increased ROS production | Number of viable cells compared to gemcitabine alone, pretreatment [6]: significantly decreased the number of viable cells
